Where two headings read alike, the source gives them in different places.
Biological target: Cytochrome P450 2E1 (CYP2E1) (Rattus norvegicus, UniProt P05182)
Settings: rat liver microsomes

Sequences of proteins named here, by UniProt entry; tags and fusion partners are left off. A change or cut given only in a name is not applied to a line headed by its entry.
UniProt P05182: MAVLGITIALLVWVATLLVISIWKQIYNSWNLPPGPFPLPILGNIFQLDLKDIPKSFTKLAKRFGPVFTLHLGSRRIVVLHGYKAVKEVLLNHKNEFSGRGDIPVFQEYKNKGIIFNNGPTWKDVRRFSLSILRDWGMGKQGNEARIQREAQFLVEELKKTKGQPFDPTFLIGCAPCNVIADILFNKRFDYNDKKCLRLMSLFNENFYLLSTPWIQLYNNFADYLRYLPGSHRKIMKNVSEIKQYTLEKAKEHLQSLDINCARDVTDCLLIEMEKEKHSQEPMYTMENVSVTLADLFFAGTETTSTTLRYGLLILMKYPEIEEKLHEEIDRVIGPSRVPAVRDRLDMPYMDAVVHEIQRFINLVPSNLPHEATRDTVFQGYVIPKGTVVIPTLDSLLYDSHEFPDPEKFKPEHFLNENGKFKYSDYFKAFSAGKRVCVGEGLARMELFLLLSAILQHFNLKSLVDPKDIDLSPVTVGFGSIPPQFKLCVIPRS

## Glycerin monostearate
Test concentration 0.024%
  CYP 2E1 inhibition ratio: 8.3 ± 5.7%
Test concentration 0.084% (w/v)
  CYP 2E1 inhibition ratio: 7.4 ± 2.9%
Test concentration 0.167% (w/v)
  CYP 2E1 inhibition ratio: 6.9 ± 1.8%

— patent US10420737B2, “Hepatotoxicity-free pharmaceutical composition containing acetaminophen drugs” (NATIONAL DEFENSE EDUCATION AND RESEARCH FOUNDATION, priority 2013, dated 2019)
